Values quoted from earlier work, collected in US11744789B2, “Method for dyeing keratinous material, comprising the use of an organosilicon compound, a colored effect pigment and a sealing reagent III” (Henkel AG & Co. KGaA, priority 2019, dated 2023).

Settings: 25° C.

Substance: 3,4,5,6-tetrachloro-2-(1,4,5,8-tetrabromo-6-hydroxy-3-oxoxanthen-9-yl)benzoic acid [Acid Red 92]
- solubility in water: greater than 10 g/L
